Assay results from US20200377563A1.

What was measured:
[1] = target: Recombinant TNF-α (R&D Systems, 210-TA-100/CF) (UniProt P01375); assay: ELISA, TNF-α coated, binder titrated, detection with anti-human IgG antibody-HRP
human IL-23 (human) = human IL-23 (human) (UniProt Q9NPF7); assay: ELISA, biotinylated IL-23 captured on neutravidin, binder titrated, detection with anti-human NGAL antibody-HRP
[2] = target: Recombinant TNF-α (R&D Systems, 210-TA-100/CF) (UniProt P01375); assay: dual-binding ELISA: TNF-α coated, fusion titrated, then constant biotinylated IL-23 (1 µg/mL), detection with Extravidin-HRP
human IL-17A (human) = human IL-17A (human) (UniProt Q16552); assay: ELISA, biotinylated IL-17A captured on neutravidin, binder titrated, detection with anti-human TLc antibody-HRP

antibody of SEQ ID NOs: 61 and 62 (antibody; other documents disagree on this pair)
EC50 [1]: 0.16 nM

fusion protein of SEQ ID NOs: 64 and 62 (bispecific antibody; other documents disagree on this pair)
EC50 [1]: 0.26 nM
EC50 (human IL-23 (human)): 1.2 nM
EC50 Dual binding [2]: 1.54 nM

fusion protein of SEQ ID NOs: 63 and 62 (bispecific antibody; other documents disagree on this pair)
EC50 (human IL-17A (human)): 1.25 nM
